Laboratory results as given in article PMC5653977, “Spironolactone is an antagonist of NRG1‐ERBB4 signaling and schizophrenia‐relevant endophenotypes in mice” (EMBO Molecular Medicine, 2017).

System: NRG1-ERBB4 signaling
Assay: Nrg1-ERBB4-PIK3R1 split TEV co-culture compound screen of the NIH Clinical Collection
Settings: sheet raw data NCC-003, compounds ranked by Z-score

NNCCc1ccccc1.O=S(=O)(O)O [PHENELZINE SULFATE SALT]
Z-SCORE: -1.05
